# According to US11691972B2, “Compounds for targeted degradation of BRD9” (C4 Therapeutics, Inc., priority 2020, dated 2023):
# Protein sequences, listed by entry. Tags and fused reporters are not part of them.
# UniProt Q9H8M2, whole entry: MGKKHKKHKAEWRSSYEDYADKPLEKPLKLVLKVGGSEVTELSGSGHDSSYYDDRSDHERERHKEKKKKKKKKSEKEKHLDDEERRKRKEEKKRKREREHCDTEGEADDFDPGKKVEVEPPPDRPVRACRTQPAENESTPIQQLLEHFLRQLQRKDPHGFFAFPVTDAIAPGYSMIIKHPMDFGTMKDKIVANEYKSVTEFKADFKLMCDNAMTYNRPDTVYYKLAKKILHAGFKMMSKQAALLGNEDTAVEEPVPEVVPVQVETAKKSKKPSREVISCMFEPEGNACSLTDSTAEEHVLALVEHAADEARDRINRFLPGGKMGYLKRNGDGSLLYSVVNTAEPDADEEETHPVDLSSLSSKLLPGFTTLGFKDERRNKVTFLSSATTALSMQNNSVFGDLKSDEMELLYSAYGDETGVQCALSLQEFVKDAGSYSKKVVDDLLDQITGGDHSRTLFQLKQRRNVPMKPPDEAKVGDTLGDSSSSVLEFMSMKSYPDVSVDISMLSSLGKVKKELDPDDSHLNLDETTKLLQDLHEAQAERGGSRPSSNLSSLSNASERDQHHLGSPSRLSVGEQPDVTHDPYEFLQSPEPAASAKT
# Biological target: BRD9 (Homo sapiens, UniProt Q9H8M2)
# Assay: HiBiT BRD9 degradation assay in 293T.166 (BRD9-HiBiT) cells
# Conditions: read-out: HiBiT-Degradation 293T.166 BRD9 2.0 hours (DC50), Table 1, 293T.166 cells, class symbols, tested form: TFA
# Procedure: Selected compounds were tested in a BRD9 degradation assay using the HiBit Method.
# Dulbecco's modified Eagle medium (DMEM) without phenol red and fetal bovine serum (FBS) were purchased from Gibco (Grand Island, N.Y., USA). Nano-Glo® HiBiT Lytic Assay System was purchased from Promega (Madison, Wis., USA). 293T.166 (BRD9-HiBiT) cell line, endogenously expressing BRD9 with HiBiT fusion tag via CRISPR and ectopically expressing LgBiT tag, was purchased from Promega (Madison, Wis., USA). 293T.167 (BRD7-HiBiT) cell line, endogenously expressing BRD7 with HiBiT fusion tag via CRISPR and ectopically expressing LgBiT tag, was purchased from Promega (Madison, Wis., USA). 293T.92 (BRD4-HiBiT) cell line, endogenously expressing BRD4 with HiBiT fusion tag via CRISPR and ectopically expressing LgBiT tag, was generated in-house. Cell culture flasks and 384-well microplates were acquired from VWR (Radnor, Pa., USA).
# BRD9 degradation was determined based on quantification of luminescent signal using Nano-Glo® HiBiT Lytic Assay kit. Test compounds were added to the 384-well plate from a top concentration of 10 μM with 11 points, half log titration in duplicates. […] BRD7 and BRD4 degradation was similarly determined with 293T.167 cells and 293T.92 cells, respectively. […] Luminescence was acquired on EnVision™ Multilabel Reader (PerkinElmer, Santa Clara, Calif., USA).
smiles,measurement,value
COc1cc(-c2cn(C)c(=O)c3[nH]ncc23)cc(OC)c1CN1CCC(CC(=O)N2CCC(c3ccc(NC4CCC(=O)NC4=O)cc3)CC2)CC1 (stereo not shown),DC50,< 100 nM
